target: human 5-HT6 receptor (Homo sapiens (Human), UniProt P50406); experiment: radioligand binding assay (SPA format), [N-methyl-3H]-LSD; details: read-out: human 5HT6 Ki

Chains of the proteins cited; added tags and fusions are not shown.
UniProt P50406, whole entry: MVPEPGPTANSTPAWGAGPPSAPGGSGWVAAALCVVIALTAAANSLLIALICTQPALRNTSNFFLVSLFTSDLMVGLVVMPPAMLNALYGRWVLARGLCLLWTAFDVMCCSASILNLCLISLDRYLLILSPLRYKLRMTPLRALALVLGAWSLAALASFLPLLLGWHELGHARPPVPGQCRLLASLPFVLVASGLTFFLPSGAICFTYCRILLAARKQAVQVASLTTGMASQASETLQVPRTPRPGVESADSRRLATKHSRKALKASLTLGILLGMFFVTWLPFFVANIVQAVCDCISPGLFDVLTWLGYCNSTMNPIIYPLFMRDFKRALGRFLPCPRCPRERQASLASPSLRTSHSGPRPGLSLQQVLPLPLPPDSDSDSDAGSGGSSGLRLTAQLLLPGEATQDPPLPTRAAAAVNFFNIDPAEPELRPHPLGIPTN

Compound | Ki [nM]
Cn1c2c(c3cc(S(=O)(=O)c4c[nH]c5ccccc45)ccc31)C1CCC(C2)N1 (stereo not drawn) [Example 164] | 0.74
Cn1c2c(c3cc(S(=O)(=O)c4ccc5[nH]ccc5c4)ccc31)C1CCC(C2)N1 (stereo not drawn) [Example 94] | 0.32
COc1cc(S(=O)(=O)n2ccc3ccc(F)cc32)cc2c3c(n(C)c12)CC1CCC3N1 (stereo not drawn) [Example 239] | 0.43
Cc1cc(S(=O)(=O)n2ccc3ccccc32)cc2c3c(n(C)c12)CC1CCC3N1.Cl (stereo not drawn) [Example 79, 2-[1-Indolesulfonyl]-4,5-dimethyl-5,6,7,8,9,10-hexahydro-7,10-epiminocyclohepta[b]indole] | 1.6
Cl.Cn1c2c(c3cc(S(=O)(=O)c4cccc(NC5CCCC5)c4)ccc31)C1CCC(C2)N1 (stereo not drawn) [Example 48, 2-[(3-N-Cyclopentylamino)phenyl]sulfonyl-5-methyl-5,6,7,8,9,10-hexahydro-7,10-epiminocyclohepta[b]indole hydrochloride] | 2
Cn1c2c(c3cc(S(=O)(=O)c4ccccc4)cc(OCCO)c31)C1CCC(C2)N1 (stereo not drawn) [Example 151] | 44
COCCOc1cc(S(=O)(=O)c2ccccc2)cc2c3c(n(C)c12)CC1CCC3N1 (stereo not drawn) [Example 237] | 7.1
Cc1cc(S(=O)(=O)n2ccc3ccccc32)cc2c3c(n(C)c12)CC1CCC3N1 (stereo not drawn) [Example 228] | 0.96
Cn1c2c(c3cc(S(=O)(=O)c4csc5ccccc45)ccc31)C1CCC(C2)N1 (stereo not drawn) [Example 171] | 0.36
COc1cc(S(=O)(=O)c2cccc(O)c2)cc2c3c(n(C)c12)CC1CCC3N1 (stereo not drawn) [Example 146] | 2.3
Cl.Cn1c2c(c3cc(S(=O)(=O)c4ccccc4)ccc31)C1CCC(C2)N1 (stereo not drawn) [Example 27, 2-Phenylsulfonyl-5-methyl-5,6,7,8,9,10-hexahydro-7,10-epiminocyclohepta[b]indole hydrochloride] | 7.8
Cl.Cn1c2c(c3cc(S(=O)(=O)c4cccc(-c5ccccc5)c4)ccc31)C1CCC(C2)N1 (stereo not drawn) [Example 57, 2-[(3-Phenyl)-phenyl]sulfonyl-5-methyl-5,6,7,8,9,10-hexahydro-7,10-epiminocyclohepta[b]indole hydrochloride] | 2.6
Cn1c2c(c3cc(S(=O)(=O)n4c5c(c6ccccc64)CCC5)ccc31)C1CCC(C2)N1 (stereo not drawn) [Example 128] | 24
COc1cc(S(=O)(=O)c2cncc(Cl)c2)cc2c3c(n(C)c12)CC1CCC3N1 (stereo not drawn) [Example 144] | 21
Cn1c2c(c3cc(S(=O)(=O)c4c[nH]c5ccccc45)ccc31)C1CCC(C2)N1 (stereo not drawn) [Example 98] | 1.3

Source: patent publication US8575186B2, “Epiminocycloalkyl[b] indole derivatives as serotonin sub-type 6 (5-HT6) modulators and uses thereof” (Albany Molecular Research, Inc., priority 2009, dated 2013)
